pIC50: −log10 of the molar value.
What was measured:
EGFR (L858R/T790M) = EGFR (L858R/T790M) (Homo sapiens, UniProt P00533, L858R/T790M); assay: EGFR biochemical assay; conditions: with 90-minute pre-incubation
[1] = target: T1, EGFR Ex20_D770_N771insNPG (Homo sapiens, UniProt P00533, INS770NPG); assay: EGFR target modulation assay (phospho-EGFR) in NIH-3T3 Ex20_D770_N771insNPG cells; format: cell-based; conditions: NIH-3T3 target modulation, 3 hours
T1 construct: host or cells: NIH-3T3
Experimental: NIH-3T3 Ex20_D770_N771insNPG cells (obtained from DFCI) were maintained in 10% FBS/DMEM P/S media supplemented with 2 μg/mL puromycin. Engineered BaF3 cells were maintained in 10% FBS/RMPI P/S media supplemented with 2 μg/mL puromycin. All cells were maintained in a humidified incubator at 37° C. with 5% CO2.
To assess compound efficacy on EGFR target modulation, phospho-EGFR was measured in NIH-3T3 Ex20_D770_N771insNPG cells treated with compound. These cells were plated overnight in 5% FBS/DMEM at 1000 cells/well (25 μL per well) in a 384-well tissue culture plate. Compounds from a 12-point dilution curve (20 μM highest final concentration, serial diluted by 3-fold in DMSO) were transferred to the cells using a 50 nL Pin Tool device and incubated in a humidified incubator at 37° C. with 5% CO2 for 3 hours. Media was drained to 20 μL followed by the addition of 20 μL of 2×Lysis buffer with phosphatase and protease inhibitors. […] Active EGFR was detected with rabbit anti-phospho-EGFR (Y1173) followed by goat anti-rabbit IgG conjugated to HRP. Plates were developed with SuperSignal ELISA Pico chemiluminescent detection reagent and luminescence read on EnVision plate reader.
Raw data were uploaded to the LDDB server, and the IC50 values for the compound in each cell line were calculated using non-linear curve fitting analysis.

Chains of the proteins cited; added tags and fusions are not shown. A line that says so, or that is headed by a name, gives the form on record, which may keep a tag or linker. Residues count along the entry.
UniProt P00533, 25-1210 T790M/L858R: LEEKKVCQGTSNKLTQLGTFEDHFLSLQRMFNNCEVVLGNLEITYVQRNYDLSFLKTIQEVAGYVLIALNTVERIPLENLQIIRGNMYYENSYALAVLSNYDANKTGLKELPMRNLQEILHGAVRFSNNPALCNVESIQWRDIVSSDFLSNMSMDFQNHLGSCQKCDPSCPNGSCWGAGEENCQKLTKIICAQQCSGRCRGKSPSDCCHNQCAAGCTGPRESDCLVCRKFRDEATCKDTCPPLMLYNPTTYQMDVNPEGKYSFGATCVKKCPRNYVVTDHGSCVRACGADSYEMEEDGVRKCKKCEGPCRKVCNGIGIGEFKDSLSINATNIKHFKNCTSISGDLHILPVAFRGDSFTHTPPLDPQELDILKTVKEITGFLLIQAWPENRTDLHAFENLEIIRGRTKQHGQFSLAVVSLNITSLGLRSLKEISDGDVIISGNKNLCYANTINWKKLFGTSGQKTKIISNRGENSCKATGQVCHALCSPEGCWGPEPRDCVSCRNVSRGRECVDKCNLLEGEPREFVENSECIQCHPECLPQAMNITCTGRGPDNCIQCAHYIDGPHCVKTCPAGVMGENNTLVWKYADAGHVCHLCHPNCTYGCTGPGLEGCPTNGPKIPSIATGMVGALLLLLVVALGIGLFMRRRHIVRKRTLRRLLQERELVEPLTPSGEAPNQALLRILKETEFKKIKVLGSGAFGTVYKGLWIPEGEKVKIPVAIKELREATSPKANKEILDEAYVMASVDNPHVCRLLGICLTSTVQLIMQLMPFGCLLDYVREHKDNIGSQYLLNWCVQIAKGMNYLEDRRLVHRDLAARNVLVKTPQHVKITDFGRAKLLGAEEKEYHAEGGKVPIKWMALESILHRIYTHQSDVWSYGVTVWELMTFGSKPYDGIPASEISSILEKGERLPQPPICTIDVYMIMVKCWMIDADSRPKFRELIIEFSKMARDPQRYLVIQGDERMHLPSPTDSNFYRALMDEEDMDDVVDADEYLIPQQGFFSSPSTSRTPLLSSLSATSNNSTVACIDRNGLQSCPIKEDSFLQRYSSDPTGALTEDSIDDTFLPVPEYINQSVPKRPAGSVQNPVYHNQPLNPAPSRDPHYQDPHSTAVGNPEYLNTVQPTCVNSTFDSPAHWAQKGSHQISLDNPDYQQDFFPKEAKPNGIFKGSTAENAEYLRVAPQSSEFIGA
UniProt P00533, with tags, fused parts or gaps INS770NPG: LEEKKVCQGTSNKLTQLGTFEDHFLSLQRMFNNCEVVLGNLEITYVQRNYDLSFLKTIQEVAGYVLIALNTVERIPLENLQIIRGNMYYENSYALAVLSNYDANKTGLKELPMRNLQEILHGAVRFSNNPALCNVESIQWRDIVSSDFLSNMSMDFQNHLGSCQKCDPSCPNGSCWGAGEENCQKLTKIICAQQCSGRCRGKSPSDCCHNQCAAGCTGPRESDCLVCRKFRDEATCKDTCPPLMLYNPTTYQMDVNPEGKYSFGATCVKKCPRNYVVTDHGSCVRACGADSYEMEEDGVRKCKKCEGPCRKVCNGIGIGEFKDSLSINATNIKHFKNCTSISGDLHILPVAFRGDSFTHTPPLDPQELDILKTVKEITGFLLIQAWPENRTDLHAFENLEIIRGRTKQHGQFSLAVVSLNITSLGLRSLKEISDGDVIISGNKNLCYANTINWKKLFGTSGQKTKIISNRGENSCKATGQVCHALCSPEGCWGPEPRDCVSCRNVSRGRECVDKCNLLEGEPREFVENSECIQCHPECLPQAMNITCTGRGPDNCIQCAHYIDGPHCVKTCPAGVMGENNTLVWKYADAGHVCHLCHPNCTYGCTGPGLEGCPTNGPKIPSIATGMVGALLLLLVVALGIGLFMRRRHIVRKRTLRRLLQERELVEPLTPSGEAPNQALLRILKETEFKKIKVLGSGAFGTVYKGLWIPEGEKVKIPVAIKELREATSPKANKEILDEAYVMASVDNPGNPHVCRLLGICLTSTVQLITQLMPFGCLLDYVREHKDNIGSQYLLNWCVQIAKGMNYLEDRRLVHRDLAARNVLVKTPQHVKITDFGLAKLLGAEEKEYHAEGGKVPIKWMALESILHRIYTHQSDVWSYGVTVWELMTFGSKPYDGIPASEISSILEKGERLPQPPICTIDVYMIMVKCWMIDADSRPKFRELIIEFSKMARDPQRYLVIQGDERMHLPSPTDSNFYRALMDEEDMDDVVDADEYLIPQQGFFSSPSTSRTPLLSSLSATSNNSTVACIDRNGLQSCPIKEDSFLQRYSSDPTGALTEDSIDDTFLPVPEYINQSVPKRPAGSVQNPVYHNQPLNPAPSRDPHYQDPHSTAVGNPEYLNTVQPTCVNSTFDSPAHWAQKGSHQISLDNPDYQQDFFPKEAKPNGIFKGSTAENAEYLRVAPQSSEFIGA

Question: Which results are given for `Cc1cc(C(=O)Nc2nc3cccc(Cl)c3n2[C@@H]2CCCCN(C(=O)/C=C/CN(C)C)C2)ccn1` [Compound A, (R,E)-N-(7-chloro-1-(1-(4-(dimethylamino)but-2-enoyl)azepan-3-yl)-1Hbenzo[d]imidazol-2-yl)-2-methylisonicotinamide]?
Answer: pIC50 (EGFR (L858R/T790M)): > 9.00; pIC50 [1]: 7.85

From US10881664B2, “Methods for treating EGFR mutant cancers” (priority 2015, dated 2021)
